Test results as given in PubChem BioAssay (Tox21).
Several values for one entry are separate records, joined by “and”; a condition that tells them apart may be missing. Equal values may be shown once. The entries are a selection whose mix differs from that of the whole data set. Records with an inconclusive call do not appear. Activity calls are given as the source filed them. Calls follow the shape of the full dose curve.
% is scaled to controls: 0 for no effect and ±100 for the full control effect.

Assay: qHTS assay to identify small molecule antagonists of the estrogen receptor alpha (ER-alpha) signaling pathway using the BG1 cell line (AID 743080);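 also: BG1 cells stimulated with 17beta-estradiol alongside compound; nearly all actives have a fitted effect of over 25% in size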
Conditions: BG1Luc4E2 ERE-luciferase antagonist mode, luminescence; at 32.5 µM (top of the series)
Text: National Center for Advancing Translational Sciences [NCATS]
NIH Chemical Genomics Center [NCGC]
U.S. Environmental Protection Agency [EPA]
National Institutes of Environmental Health Sciences [NIEHS]
National Toxicology Program [NTP]
U.S. Food and Drug Administration [FDA]
Estrogen receptor (ER), a nuclear hormone receptor, plays an important role in development, metabolic homeostasis and reproduction. Endocrine disrupting chemicals (EDCs) and their interactions with steroid hormone receptors like ER causes disruption of normal endocrine function. Therefore, it is important to understand the effect of environmental chemicals on the ER signaling pathway. To identify ER antagonists, BG1-Luc-4E2 cell line (provided by Dr. Michael Denison from University of California) has been used to screen the Tox21 10K compound library. BG1Luc4E2 cell line endogenously expresses full-length ER-alpha and is stably transfected with a plasmid containing four estrogen responsive elements (ERE) upstream of a luciferase reporter gene.
Tox21 Assay Protocol Summary:
BG1-Luc-4E2 cells were cultured in phenol red free assay medium containing 10% charcoal stripped FBS for 5 days before the assay was performed. The cells were dispensed at 4,000 cells/4 uL of assay medium per well into white wall/solid-bottom 1536-well plates using a Multidrop Combi (ThermoFisher Scientific, Waltham, MA) dispenser. The assay plates were incubated at a 37C and 5% CO2 for 24 h, and then 23 nL of compounds dissolved in DMSO, positive controls or DMSO only was transferred to the assay plate using a Pintool station (Kalypsys, San Diego, CA), followed by addition of 1 uL of 17beta-estradiol in assay medium using a Flying Reagent Dispenser (Aurora Discovery, San Diego, CA). After the plates were incubated at 37 C and 5% CO2 for 21.5 h, 1 uL of CellTiter-Fluor reagent (Promega, Madison, WI) of measuring cytotoxicity was added using Flying Reagent Dispenser (FRD) to each well. The assay plates were incubated at 37 C and 5% CO2 for additional 30 min and the fluorescence intensity was quantified by a ViewLux plate reader (PerkinElmer, Shelton, CT). For measuring luciferase reporter gene activity, 4 uL of ONE-Glo reagent (Promega) was added to each plate using an FRD and luminescence was quantified by a ViewLux plate reader after 30 min incubation at room temperature.
In the case of `C/C1=C2N=C(/C=C3N=C(/C(C)=C4\[N-][C@@](C)([C@@H]5N=C1[C@](C)(CCC(=O)NC[C@@H](C)OP(=O)([O-])O[C@H]1[C@@H](O)[C@@H](n6cnc7cc(C)c(C)cc76)O[C@@H]1CO)[C@H]5CC(N)=O)[C@@](C)(CC(N)=O)[C@@H]4CCC(N)=O)[C@@](C)(CC(N)=O)[C@@H]\3CCC(N)=O)C(C)(C)[C@@H]/2CCC(N)=O.[C-]#N.[Co+3]`, the activity change, negative = inhibition is reported as inactive: 7.62%.

Same assay, conditions: BG1Luc4E2 ERE-luciferase antagonist mode, luminescence; at 70.3 µM (top of the series)
For `Cc1ccc([N+](=O)[O-])c([N+](=O)[O-])c1`, the activity change, negative = inhibition was inactive: 44.3%.
With `Cc1ccc([N+](=O)[O-])cc1[N+](=O)[O-]` the activity change, negative = inhibition was inactive: 3.01% and inactive: 9.44%.
For `O=[N+]([O-])OCC(CO[N+](=O)[O-])(CO[N+](=O)[O-])CO[N+](=O)[O-]`, the activity change, negative = inhibition was inactive: -2.91%.
With `CP(=O)(O)OCCC[Si](O)(O)O` the activity change, negative = inhibition was inactive: 1.95%.
For `COP(C)(=O)OC`, the activity change, negative = inhibition was inactive: 18.5%.
In the case of `CC(C)OP(C)(=O)OC(C)C`, the activity change, negative = inhibition is reported as inactive: 7.11% and inactive: 3.01%.
In the case of `CC(C)N(CCO)C(C)C`, the activity change, negative = inhibition is reported as inactive: -0.504%.
For `CC(C)OP(=O)(F)OC(C)C`, the activity change, negative = inhibition was inactive: 2.92%.
In the case of `O=[N+]([O-])[O-].[NH4+]`, the activity change, negative = inhibition is reported as inactive: -2.92% and inactive: -1.09% and inactive: 0.517%.
With `CCOP(=O)(CC)OCC` the activity change, negative = inhibition was inactive: 0.917%.
In the case of `CN(C)CCS`, the activity change, negative = inhibition is reported as inactive: 1.11%.
In the case of `OCCSCCO`, the activity change, negative = inhibition is reported as inactive: 6.45%.
With `COc1ccc([N+](=O)[O-])cc1[N+](=O)[O-]` the activity change, negative = inhibition was inactive: 0.466%.
With `CC(C)N(CCCl)C(C)C` the activity change, negative = inhibition was inactive: 4.14%.
In the case of `Cc1c([N+](=O)[O-])cccc1[N+](=O)[O-]`, the activity change, negative = inhibition is reported as inactive: -1.13% and inactive: 1.8%.

Same assay, conditions: BG1Luc4E2 ERE-luciferase antagonist mode, luminescence; at 95 µM (top of the series)
For `N=C(N)N[N+](=O)[O-]`, the activity change, negative = inhibition was inactive: -17.6%.
For `COP(C)(=O)OC`, the activity change, negative = inhibition was inactive: -4.97%.
In the case of `OCCSCCO`, the activity change, negative = inhibition is reported as inactive: -8.35%.
For `CCN(CC)CCCl`, the activity change, negative = inhibition was inactive: -11.7%.
With `Nc1cc([N+](=O)[O-])cc([N+](=O)[O-])c1O` the activity change, negative = inhibition was inactive: -9.12%.
